Measurements as given in US20230303647A1, “CYCLIC CHEMERIN-9 DERIVATIVES” (priority 2020, published 2023).

Columns and labels:
CMKLR1 [1] = biological target: T1, CMKLR1 (Homo sapiens, UniProt Q99788); assay: BRET-based arrestin 3 recruitment assay; conditions: CMKLR1-eYFP and Rluc8-arrestin 3, 15 min after agonist addition
T1 sequence (Q99788 1-373): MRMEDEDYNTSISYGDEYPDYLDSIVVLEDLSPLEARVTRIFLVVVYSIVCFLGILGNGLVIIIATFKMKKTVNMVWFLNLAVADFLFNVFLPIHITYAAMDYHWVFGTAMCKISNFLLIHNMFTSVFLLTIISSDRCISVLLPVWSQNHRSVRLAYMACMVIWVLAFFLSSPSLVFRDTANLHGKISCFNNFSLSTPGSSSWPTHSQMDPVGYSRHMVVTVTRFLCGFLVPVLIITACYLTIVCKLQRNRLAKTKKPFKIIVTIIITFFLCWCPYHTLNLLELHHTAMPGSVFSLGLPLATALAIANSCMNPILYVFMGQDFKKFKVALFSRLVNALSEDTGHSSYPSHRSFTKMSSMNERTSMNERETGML

CMKLR1 [2] = biological target: T1, CMKLR1; assay: Ca2+ mobilization assay (G protein-mediated signaling)

## C[C@@H]1NC(=O)[C@H](Cc2ccccc2)NC(=O)[C@H](CCC(N)=O)NC(=O)[C@H](NC(=O)[C@@H]2CCCN2C(=O)[C@H](Cc2ccccc2)NC(=O)[C@H](Cc2ccc(O)cc2)NC(=O)CCOCCOCCOCCOCCN)CCSSC[C@@H](C(=O)O)NC(=O)[C@H](Cc2ccccc2)NC1=O [$$ 16, EG4-[x4,C9]-chemerin-9]
CMKLR1 [1]; EC50, HEK293 cells
  EC50: 101 nM
CMKLR1 [1]; pEC50 ± SEM, HEK293 cells
  EC50: 158 nM
CMKLR1 [2]
  EC50: 17.1 nM
